Reference: ChEMBL document CHEMBL1255231
The entries are a selection whose mix differs from that of the whole data set. Calls of active or inactive are those of the source. No cut-off for these calls is given here.

species on record: Mus musculus; assay: Inhibition of neurosphere proliferation of mouse neural precursor cells by MTT assay; assay type: functional

| SMILES | inhibition |
| --- | --- |
| CN(C(=O)Cc1ccccc1)[C@H]1CC[C@@]2(CCCO2)C[C@@H]1N1CCCC1 | inactive |
| CN(CCCl)Cc1cc(Cl)c(NC2=NCCN2)c(Cl)c1 | inactive |
| CN(C)c1ccc(N(C)C)cc1 | inactive |
| CN(C(=O)Cc1ccc(Cl)c(Cl)c1)[C@H]1CC[C@@]2(CCCO2)C[C@@H]1N1CCCC1 | inactive |
